# Results published in ChEMBL document CHEMBL3525957, “Stereospecific metabolism of itraconazole by CYP3A4: dioxolane ring scission of azole antifungals” (Drug Metab Dispos, 2012).
# Amino acid sequences for entries named in this document (tags omitted).
# UniProt P08684, whole entry: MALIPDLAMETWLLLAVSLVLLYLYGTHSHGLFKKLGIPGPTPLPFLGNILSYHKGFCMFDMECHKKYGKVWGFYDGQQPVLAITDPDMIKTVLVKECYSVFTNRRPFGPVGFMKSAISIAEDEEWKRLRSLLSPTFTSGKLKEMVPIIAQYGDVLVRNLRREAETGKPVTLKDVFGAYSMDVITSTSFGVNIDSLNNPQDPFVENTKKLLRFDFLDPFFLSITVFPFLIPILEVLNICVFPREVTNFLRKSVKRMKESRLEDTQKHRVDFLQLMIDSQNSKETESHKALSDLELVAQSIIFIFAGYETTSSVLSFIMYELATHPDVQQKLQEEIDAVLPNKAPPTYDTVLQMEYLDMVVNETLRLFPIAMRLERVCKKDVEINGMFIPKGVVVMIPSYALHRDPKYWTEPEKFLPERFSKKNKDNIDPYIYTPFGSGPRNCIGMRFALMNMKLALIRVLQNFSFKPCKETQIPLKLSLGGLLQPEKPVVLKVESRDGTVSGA
# Target: Cytochrome P450 3A4 (Homo sapiens, UniProt P08684)
# Assay: Inhibition of CYP3A4 in human liver microsomes using midazolam as substrates after 5 mins by LC/MS analysis in presence of NADPH
# Format: ADME
# Procedure, shortened: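 Pooled HLM (0.025 mg/ml, CYP3A5*3/*3) with midazolam 1 μM in KPi. Inhibitor range 5–1000 nM for trans isomers. 5-min preincubation at 37°C, then NADPH 1 mM final, run for 2 min. Stopped with ethyl acetate, d4-1'-OH-MDZ added as internal standard. IC50 from fit of remaining-activity equation.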
row,inhibition (INH),Structure (SMILES)
1,Dose-dependent effect,CC[C@H](C)n1ncn(-c2ccc(N3CCN(c4ccc(OC[C@H]5CO[C@@](Cn6cncn6)(c6ccc(Cl)cc6Cl)O5)cc4)CC3)cc2)c1=O
2,Dose-dependent effect,CC[C@@H](C)n1ncn(-c2ccc(N3CCN(c4ccc(OC[C@H]5CO[C@@](Cn6cncn6)(c6ccc(Cl)cc6Cl)O5)cc4)CC3)cc2)c1=O
3,Dose-dependent effect,CC[C@H](C)n1ncn(-c2ccc(N3CCN(c4ccc(OC[C@@H]5CO[C@](Cn6cncn6)(c6ccc(Cl)cc6Cl)O5)cc4)CC3)cc2)c1=O
4,Dose-dependent effect,CC[C@@H](C)n1ncn(-c2ccc(N3CCN(c4ccc(OC[C@@H]5CO[C@](Cn6cncn6)(c6ccc(Cl)cc6Cl)O5)cc4)CC3)cc2)c1=O
